This assay addresses R132H mutant IDH1 enzyme (Homo sapiens (Human), UniProt O75874, R132H). Kind of assay: R132H IDH1 Enzymatic Assay. Format: biochemical. The following applies: R132H mutant IDH1 enzyme 1.5 nM final; luminescence readout; read-out: IC50.

Sequences of proteins named here, by UniProt entry; tags and fusion partners are left off.
UniProt O75874, whole entry R132H: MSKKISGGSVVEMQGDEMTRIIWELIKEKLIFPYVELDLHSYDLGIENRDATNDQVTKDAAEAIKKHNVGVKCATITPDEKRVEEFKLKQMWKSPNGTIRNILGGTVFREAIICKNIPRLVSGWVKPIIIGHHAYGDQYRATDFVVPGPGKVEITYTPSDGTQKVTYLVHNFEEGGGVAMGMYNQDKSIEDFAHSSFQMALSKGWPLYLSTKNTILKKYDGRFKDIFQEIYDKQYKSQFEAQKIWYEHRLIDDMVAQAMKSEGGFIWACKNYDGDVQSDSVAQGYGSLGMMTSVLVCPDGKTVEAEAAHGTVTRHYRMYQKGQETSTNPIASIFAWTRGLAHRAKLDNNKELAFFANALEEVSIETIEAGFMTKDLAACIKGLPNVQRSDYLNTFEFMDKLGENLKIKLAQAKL

With `O=C([C@H]1CC[C@@H](OC2CCOC2)CC1)N1Cc2cccnc2Nc2ccc(C3CCOCC3)cc21` (stereo partly drawn) [Example 399, 6-({cis-4-[tetrahydrofuran-3-yloxy]cyclohexyl}carbonyl)-8-(tetrahydro-2H-pyran-4-yl)-6,11-dihydro-5H-pyrido[2,3-b][1,5]benzodiazepine], the IC50 was 0.287 µM.

`CO[C@H]1CC[C@H](C(=O)N2Cc3cccnc3Nc3ccc(N(C)C4CCOCC4)cc32)CC1` [Example 251, 6-[(trans-4-methoxycyclohexyl)carbonyl]-N-methyl-N-(tetrahydro-2H-pyran-4-yl)-6,11-dihydro-5H-pyrido[2,3-b][1,5]benzodiazepin-8-amine]: the half-maximal inhibitory concentration (IC50) turned out to be 0.326 µM.

As to `CO[C@H]1CC[C@@H](C(=O)N2Cc3cccnc3Nc3ccc(N4CCn5nc(C(F)(F)F)nc5C4)cc32)CC1` [Example 269, 6-[(cis-4-methoxycyclohexyl)carbonyl]-8-[2-(trifluoromethyl)-5,6-dihydro[1,2,4]triazolo[1,5-a]pyrazin-7(8H)-yl]-6,11-dihydro-5H-pyrido[2,3-b][1,5]benzodiazepine], the IC50 was 0.334 µM.

On to `COCCn1cc(-c2ccc3c(c2)N(C(=O)[C@H]2CC[C@H](OC)CC2)Cc2cccnc2N3)cn1` [Example 365, 6-[(trans-4-methoxycyclohexyl)carbonyl]-8-[1-(2-methoxyethyl)-1H-pyrazol-4-yl]-6,11-dihydro-5H-pyrido[2,3-b][1,5]benzodiazepine], for which the IC50 is 0.127 µM.

`CO[C@H](C1CC1)[C@H]1CC[C@H](C(=O)N2Cc3cccnc3Nc3ccc(N4CCOCC4)cc32)CC1` [Example 169, 6-({Trans-4-[(R)-cyclopropyl(methoxy)methyl]cyclohexyl}carbonyl)-8-morpholin-4-yl-6,11-dihydro-5H-pyrido[2,3-b][1,5]benzodiazepine]: the IC50 worked out at 0.051 µM.

With `CC(C)O[C@H]1CC[C@H](C(=O)N2Cc3cccnc3Nc3ccc(C4COC5CC5O4)cc32)OC1` (single isomer, unassigned) [Example 29], the IC50 worked out at 0.036 µM.

As to `CC(C)O[C@H]1CC[C@H](C(=O)N2Cc3cccnc3Nc3ccc(N4CC5CCC4CO5)cc32)CC1` (single isomer, unassigned) [Example 192, 6-{[Trans-4-(1-methylethoxy)cyclohexyl]carbonyl}-8-(2-oxa-5-azabicyclo[2.2.2]oct-5-yl)-6, 11-dihydro-5H-pyrido[2,3-b][1,5]benzodiazepine], the IC50 was determined as 0.038 µM.

As for `COC1CN(c2ccc3c(c2)N(C(=O)[C@H]2CC[C@H](OC)CC2)Cc2cccnc2N3)CCC1(F)F` (stereo partly drawn) [Example 213, 8-(4,4-difluoro-3-methoxypiperidin-1-yl)-6-[(trans-4-methoxycyclohexyl)carbonyl]-6,11-dihydro-5H-pyrido[2,3-b][1,5]benzodiazepine], the IC50 was 0.321 µM.

Consider `CO[C@H]1CC[C@H](C(=O)N2Cc3cccnc3Nc3ccc(N4CCOCC4C4CC4)cc32)CC1` (stereo partly drawn) [Example 295, 8-(3-cyclopropylmorpholin-4-yl)-6-[(trans-4-methoxycyclohexyl)carbonyl]-6,11-dihydro-5H-pyrido[2,3-b][1,5]benzodiazepine], for which the IC50 was found to be 0.428 µM.

Turning to `CO[C@H]1CC[C@H](C(=O)N2Cc3cccnc3Nc3ccc(C4=CCC(C#N)CC4)cc32)CC1` (stereo partly drawn) [Example 358, 4-{6-[(trans-4-methoxycyclohexyl)carbonyl]-6,11-dihydro-5H-pyrido[2,3-b][1,5]benzodiazepin-8-yl}cyclohex-3-ene-1-carbonitrile], the concentration for half-maximal inhibition (IC50) was determined as 0.044 µM.

For the compound `C[C@H](N[C@H]1CC[C@H](C(=O)N2Cc3cccnc3Nc3ccc(N4CCOCC4)cc32)CC1)C(F)(F)F` [Example 458, trans-4-[(8-morpholin-4-yl-5,11-dihydro-6H-pyrido[2,3-b][1,5]benzodiazepin-6-yl)carbonyl]-N-[(1S)-2,2,2-trifluoro-1-methylethyl]cyclohexanamine], the IC50 is 0.087 µM.

Take `CC(C)(C)C1CC(C(=O)N2Cc3cccnc3Nc3ccccc32)C1` (stereo not shown) [Example 54, 6-[(3-tert-butylcyclobutyl)carbonyl]-6,11-dihydro-5H-pyrido[2,3-b][1,5]benzodiazepine]: the IC50 is 0.562 µM.

On to `CC(C)O[C@H]1CC[C@H](C(=O)N2Cc3cccnc3Nc3ccc(C4CCOCC4)nc32)CC1` [Example 520, [Trans-4-(propan-2-yloxy)cyclohexyl][2-(tetrahydro-2H-pyran-4-yl)-5,10-dihydro-11H-dipyrido[2,3-b:2′,3′-e][1,4]diazepin-11-yl]methanone], for which the IC50 was determined as 0.2 µM.

Turning to `O=C([C@H]1CC[C@H](NCC(F)(F)F)CC1)N1Cc2cccnc2Nc2ccc([C@H]3CCCOC3)cc21` (single isomer, unassigned) [Example 376], the IC50 was determined as 0.059 µM.

On to `CO[C@H]1CC[C@H](C(=O)N2Cc3cccnc3Nc3ccc(N4CCOCC4C)cc32)CC1` (stereo partly drawn) [Example 288, 6-[(trans-4-methoxycyclohexyl)carbonyl]-8-(3-methylmorpholin-4-yl)-6,11-dihydro-5H-pyrido[2,3-b][1,5]benzodiazepine], for which the 50% inhibitory concentration (IC50) is 0.865 µM.

For `O=C([C@H]1CC[C@H](NCC(F)(F)F)CC1)N1Cc2cccnc2Nc2ccc([C@@H]3CCCOC3)cc21` (single isomer, unassigned) [Example 375], the IC50 stood at 0.062 µM.

As to `COC1CCC(C(=O)N2Cc3cccnc3Nc3ccc(N4C(=O)OC[C@@H]4C)cc32)CC1` (stereo partly shown) [Example 492, (I4S)-3-{6-[(4-methoxycyclohexyl)carbonyl]-6,11-dihydro-5H-pyrido[2,3-b][1,5]benzodiazepin-8-yl}-4-methyl-1,3-oxazolidin-2-one], the concentration for half-maximal inhibition (IC50) turned out to be 0.974 µM.

`CO[C@H]1CC[C@H](C(=O)N2Cc3cccnc3Nc3ccc(N4C[C@H]5COC[C@H]5C4)cc32)CC1` [Example 284, 6-[(trans-4-methoxycyclohexyl)carbonyl]-8-[(3aR,6aS)-tetrahydro-1H-furo[3,4-c]pyrrol-5(3H)-yl]-6,11-dihydro-5H-pyrido[2,3-b][1,5]benzodiazepine]: the half-inhibitory concentration (IC50) is 0.223 µM.

Take `O=C([C@H]1CC[C@@H](NC2(C(F)(F)F)CC2)CC1)N1Cc2cccnc2Nc2ccc(N3CCOCC3)cc21` [Example 444, cis-4-[(8-morpholin-4-yl-5,11-dihydro-6H-pyrido[2,3-b][1,5]benzodiazepin-6-yl)carbonyl]-N-[1-(trifluoromethyl)cyclopropyl]-cyclohexanamine]: the half-inhibitory concentration (IC50) was determined as 0.155 µM.

Consider `CO[C@H]1CC[C@H](C(=O)N2Cc3cccnc3Nc3ccc(N4CCOCC4C(C)C)cc32)CC1` (stereo partly drawn) [Example 286, 6-[(trans-4-methoxycyclohexyl)carbonyl]-8-[3-(1-methylethyl)morpholin-4-yl]-6,11-dihydro-5H-pyrido[2,3-b][1,5]benzodiazepine], for which the concentration for half-maximal inhibition (IC50) was found to be 0.223 µM.

On to `O=C(C1CCN(C2(C(F)(F)F)CC2)CC1)N1Cc2cccnc2Nc2ccc(N3CCOCC3)cc21` [Example 37, 8-morpholin-4-yl-6-({1-[1-(trifluoromethyl)cyclopropyl]piperidin-4-yl}carbonyl)-6,11-dihydro-5H-pyrido[2,3-b][1,5]benzodiazepine], for which the half-maximal inhibitory concentration (IC50) amounted to 0.021 µM.

Turning to `CC(C)(C#N)c1ccc2c(c1)N(C(=O)[C@H]1CC[C@H](NCC(F)(F)F)CC1)Cc1cccnc1N2` [Example 435, 2-Methyl-2-[6-({trans-4-[(2,2,2-trifluoroethyl)amino]cyclohexyl}carbonyl)-6,11-dihydro-5H-pyrido[2,3-b][1,5]benzodiazepin-8-yl]propanenitrile], the IC50 was 0.073 µM.

For the compound `CCO[C@@H]1CC[C@H](C(=O)N2Cc3cccnc3Nc3ccc(N4CCOCC4)cc32)C1` [Example 65, 6-{[(1S,3R)-3-ethoxycyclopentyl]carbon-yl}-8-morpholin-4-yl-6,11-dihydro-5H-pyrido[2,3-b][1,5]benzodiazepine], the IC50 came out at 0.346 µM.

In the case of `CC(C)(C)O[C@H]1CC[C@@H](C(=O)N2Cc3cccnc3Nc3ccc(N4CC5CCC(C4)O5)cc32)CC1` [Example 310, 6-[(cis-4-tert-butoxycyclohexyl)carbonyl]-8-(8-oxa-3-azabicyclo[3.2.1]oct-3-yl)-6,11-dihydro-5H-pyrido[2,3-b][1,5]benzodiazepine], the concentration for half-maximal inhibition (IC50) came to 0.026 µM.

With `CO[C@H]1CC[C@H](C(=O)N2Cc3cccnc3Nc3ccc(N4CC(C)(C#N)C4)cc32)CC1` [Example 411, 1-{6-[(Trans-4-methoxycyclohexyl)carbonyl]-6,11-dihydro-5H-pyrido[2,3-b][1,5]benzodiazepin-8-yl}-3-methylazetidine-3-carbonitrile], the IC50 came to 0.618 µM.

Consider `CCN(c1ccc2c(c1)N(C(=O)[C@H]1CC[C@H](OC)CC1)Cc1cccnc1N2)C1COC1` [Example 250, N-ethyl-6-[(trans-4-methoxycyclohexyl)carbonyl]-N-oxetan-3-yl-6,11-dihydro-5H-pyrido[2,3-b][1,5]benzodiazepin-8-amine], for which the IC50 is 0.374 µM.

As to `O=C(C1CCN(C2(C(F)(F)F)CCC2)CC1)N1Cc2cccnc2Nc2ccc(N3CC4CCC3CO4)cc21` (stereo not shown) [Example 346, 8-(2-oxa-5-azabicyclo[2.2.2]oct-5-yl)-6-({1-[1-(trifluoromethyl)cyclobutyl]piperidin-4-yl}carbonyl)-6,11-dihydro-5H-pyrido[2,3-b][1,5]benzodiazepine], the half-inhibitory concentration (IC50) amounted to 0.005 µM.

Consider `O=C(C1CC(NC2(C(F)(F)F)CC2)C1)N1Cc2cccnc2Nc2ccc(N3CCOCC3)cc21` (stereo not shown) [Example 476, 3-[(8-morpholin-4-yl-5,11-dihydro-6H-pyrido[2,3-b][1,5]benzodiazepin-6-yl)carbonyl]-N-[1-(trifluoromethyl)cyclopropyl]-cyclobutanamine], for which the IC50 was found to be 0.48 µM.

With `COc1cncc(-c2ccc3c(c2)N(C(=O)[C@H]2CC[C@H](OC)CC2)Cc2cccnc2N3)c1` [Example 178, 6-[(trans-4-methoxycyclohexyl)carbonyl]-8-(5-methoxypyridin-3-yl)-6,11-dihydro-5H-pyrido[2,3-b][1,5]benzodiazepine], the IC50 is 0.152 µM.

In the case of `O=C(C1CC(c2ccccc2)C1)N1Cc2cccnc2Nc2ccccc21` (stereo not shown) [Example 1, 6-[(3-Phenylcyclobutyl)carbonyl]-6,11-dihydro-5H-pyrido[2,3-b][1,5]benzodiazepine], the IC50 came out at 0.073 µM.

Take `CC(C)O[C@H]1CC[C@H](C(=O)N2Cc3cccnc3Nc3ccc(C4COCCO4)cc32)OC1` (single isomer, unassigned) [Example 12]: the IC50 stood at 0.042 µM.

A word on the IC50: it is the midpoint of a concentration-inhibition curve.

These data come from US10442819B2, “Tricyclic compounds as inhibitors of mutant IDH enzymes” (Merck Sharp & Dohme Corp., priority 2014, dated 2019).
